In experiment [1] the target is 5-hydroxytryptamine receptor 2A (Rattus norvegicus, UniProt P14842).
The target in experiment [2] is Sodium-dependent serotonin transporter (Rattus norvegicus, UniProt P31652).

Chains of the proteins cited; added tags and fusions are not shown.
UniProt P14842, whole entry: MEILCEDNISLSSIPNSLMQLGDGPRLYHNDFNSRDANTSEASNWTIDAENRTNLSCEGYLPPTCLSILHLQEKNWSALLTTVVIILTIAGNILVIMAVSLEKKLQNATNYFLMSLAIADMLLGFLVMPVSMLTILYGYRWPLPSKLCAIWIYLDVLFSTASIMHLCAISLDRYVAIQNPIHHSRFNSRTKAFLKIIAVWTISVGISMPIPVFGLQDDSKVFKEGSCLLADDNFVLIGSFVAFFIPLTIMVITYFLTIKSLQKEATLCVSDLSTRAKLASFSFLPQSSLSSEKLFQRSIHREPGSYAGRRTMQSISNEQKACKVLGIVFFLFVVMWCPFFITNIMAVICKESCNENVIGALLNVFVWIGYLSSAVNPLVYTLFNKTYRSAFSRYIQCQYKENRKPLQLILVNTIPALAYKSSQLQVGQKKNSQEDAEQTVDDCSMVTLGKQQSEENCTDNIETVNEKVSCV
UniProt P31652, whole entry: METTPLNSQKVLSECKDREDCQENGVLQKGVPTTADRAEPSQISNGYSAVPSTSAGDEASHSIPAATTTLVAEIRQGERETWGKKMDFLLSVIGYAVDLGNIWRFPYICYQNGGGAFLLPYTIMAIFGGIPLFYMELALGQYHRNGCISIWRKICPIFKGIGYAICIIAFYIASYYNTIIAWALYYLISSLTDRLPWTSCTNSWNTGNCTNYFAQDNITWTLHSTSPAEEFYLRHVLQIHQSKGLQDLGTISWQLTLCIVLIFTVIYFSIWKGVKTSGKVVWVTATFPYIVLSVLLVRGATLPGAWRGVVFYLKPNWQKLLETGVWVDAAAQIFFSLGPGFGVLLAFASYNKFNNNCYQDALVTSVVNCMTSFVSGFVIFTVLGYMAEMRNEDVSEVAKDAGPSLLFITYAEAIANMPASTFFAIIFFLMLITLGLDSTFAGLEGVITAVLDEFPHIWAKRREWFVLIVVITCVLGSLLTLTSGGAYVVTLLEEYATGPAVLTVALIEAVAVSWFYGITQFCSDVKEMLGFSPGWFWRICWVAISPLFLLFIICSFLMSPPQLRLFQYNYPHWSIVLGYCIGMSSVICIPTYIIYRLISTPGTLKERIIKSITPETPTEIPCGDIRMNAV

Broadly, the Ki is the equilibrium dissociation constant of an inhibitor or competing ligand from its target.

The compound `CN(C)CCCN1c2ccccc2CCc2ccccc21` yielded a Ki in experiment [1] of 217 nM.

With `CN1Cc2c(N)cccc2[C@H](c2ccccc2)C1` [(+/-)-2-Methyl-4-phenyl-1,2,3,4-tetrahydro-isoquinolin-8-ylamine], affinity in experiment [2] was put at a Ki of 1820 nM.

`COC(=O)[C@H]1[C@@H](OC(=O)c2ccccc2)C[C@@H]2CC[C@H]1N2C` [Cocaine (-)]: the Ki in experiment [2] was 389 nM. Compared with the last compound, the Ki is about 4.7-fold lower.

For `Fc1ccc(C(OCCN2CCN(CCCc3ccccc3)CC2)c2ccc(F)cc2)cc1` [Vanoxerine], in experiment [2], the Ki amounted to 170 nM.

Source of the values: BindingDB's records for doi:10.1016/0014-2999(89)90363-4 (Novo Industri, 1989).
